{
  "sequences": {"note": "The chains behind the UniProt entries cited, without tags or fusion partners. Where a name states a change or a piece, a line headed by the entry shows the natural chain unless it says otherwise.", "UniProt P11511": "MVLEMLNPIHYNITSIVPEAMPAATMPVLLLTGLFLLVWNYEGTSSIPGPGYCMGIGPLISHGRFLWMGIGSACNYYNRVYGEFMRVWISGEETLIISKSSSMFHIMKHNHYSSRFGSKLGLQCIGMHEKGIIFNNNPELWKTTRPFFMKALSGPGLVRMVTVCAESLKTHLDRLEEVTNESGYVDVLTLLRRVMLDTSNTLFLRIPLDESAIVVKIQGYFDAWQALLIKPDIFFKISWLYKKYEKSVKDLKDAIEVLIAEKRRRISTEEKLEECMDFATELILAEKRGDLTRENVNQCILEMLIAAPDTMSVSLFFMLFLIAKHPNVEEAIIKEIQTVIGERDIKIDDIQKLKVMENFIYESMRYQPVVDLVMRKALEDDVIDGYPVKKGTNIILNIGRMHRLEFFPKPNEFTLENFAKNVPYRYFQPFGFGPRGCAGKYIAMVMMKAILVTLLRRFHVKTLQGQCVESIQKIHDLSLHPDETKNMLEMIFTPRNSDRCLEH"},
  "source": "patent US7129269B2",
  "about": "(dated 2006)",
  "target": "aromatase (Homo sapiens, UniProt P11511)",
  "data": [
    {"compound": "NS(=O)(=O)Oc1ccc2c(=O)cc(-c3ccccc3)oc2c1", "note": "[Compound 1, Flavone-7-O-sulphamate]", "values": [
      {"measurement": "% Inhibition of aromatase activity in placental microsomes at 10 μM", "value": 96, "unit": "%"}
    ]},
    {"compound": "NS(=O)(=O)Oc1ccc2oc(-c3ccccc3)cc(=O)c2c1", "note": "[Compound 2, Flavone-6-O-sulphamate]", "values": [
      {"measurement": "% Inhibition of aromatase activity in placental microsomes at 10 μM", "value": 14, "unit": "%"}
    ]}
  ]
}
